The test deals with Melanoma C8161 cells. Put plainly: Inhibition of human melanoma cell xenograft growth. Type of test: in vivo. The note with it: C8161 xenograft in nude mice; 7.5 mg/kg p.o. gavage every day for 21 days; P<0.01. As to the method: Mice were treated every day for 21 days, and tumor sizes were measured twice weekly with a Vernier caliper.

Here are results for one molecule from patent US20210228549A1 (Biohaven Therapeutics Ltd., priority 2015, published 2021).

For the molecule `Nc1nc2ccc(OC(F)(F)F)cc2s1` [riluzole], the “Tumor volume vs untreated or vehicle-treated controls” value was “significant reduction in tumor volume”.
